Earlier results as cited in patent US20220106275A1, “RADIOLABELED COMPOUNDS AND USES THEREOF” (The Trustees of Columbia University in the City of New York, priority 2019, published 2022).

Test system: COX-2 positive cells (HCA-7)
Conditions: cited from earlier work

CS(=O)(=O)c1ccc(-c2cc(C(F)(F)F)nc(NCc3ccc([18F])cc3)n2)cc1 [[^18F]Pyricoxib]
binding in COX-2 positive cells (HCA-7) compared with COX-2 negative cells (HCT-116): higher binding
